AlphaSeq binding of Ab-14 light chain variants to a spike HR2 peptide

Antigen: PDVDLGDISGINAS, a 14-residue peptide of the SARS-CoV-2 spike HR2 region.

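The parent was found by panning a naive human phage display library on the peptide. This is the validation round: designs drawn from the data on random variants, tested in the same kind of assay. Group labels follow the data file (Ctrl: baseline library sampled from a position-specific scoring matrix, with some repeated check sequences; En: ensemble of fine-tuned language models; GP: Gaussian process model; HC: hill climbing; Gen: genetic algorithm; Gibbs: Gibbs sampling; a sequence that several methods proposed may carry one label only). In AlphaSeq, yeast of one mating type display the scFv and yeast of the other type display the target. Pairs that bind mate more often; barcode pairs of the diploids are counted by sequencing. The ratio of observed to expected reads was calibrated, replicate by replicate, on BCL2-family standards whose Kd was known from biolayer interferometry. There are six technical replicates.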

Each scFv is VH, three GGGGS repeats, VL, as in the parent Ab-14, and differs from it in the CDRs of the light chain only.
VH: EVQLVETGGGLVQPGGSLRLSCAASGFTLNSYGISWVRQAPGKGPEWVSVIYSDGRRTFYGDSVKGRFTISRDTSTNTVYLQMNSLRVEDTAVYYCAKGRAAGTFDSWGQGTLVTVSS
VL: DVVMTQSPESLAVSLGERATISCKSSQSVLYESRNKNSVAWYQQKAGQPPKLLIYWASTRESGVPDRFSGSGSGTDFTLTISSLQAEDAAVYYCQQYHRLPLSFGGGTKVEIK

The parent's light chain CDRs are KSSQSVLYESRNKNSVA, WASTRES, QQYHRLPLS; each variant's own CDRs replace them letter for letter.
This list holds designs with more than six substitutions.
The Kd shown is the geometric mean over detected replicates; a lower Kd is a better binder.
"nd" marks a missing value. The strain was present, yet no cells mated with the target were sequenced in any replicate, which points to weak or no binding.
Of ten entries with the parent sequence, four were seen in most replicates (averages 2.2 nM to 240 nM), three in one and three in none, so single entries are noisy.

| CDR-L1 | CDR-L2 | CDR-L3 | group | Kd (apparent) | detected | signal with controls |
|---|---|---|---|---|---|---|
| IISQVDAYESRNKNSIA | DQSTRGS | QQYDRLPLS | En_HC | 2.8 nM | 6/6 | 2/18 |
| KFDFQMPELNYQDNSIA | GMTVSIE | QQYFRLPLT | En_Gibbs | nd | 0/6 | 0/18 |
| RLDSVMEQLTNRAQNVA | NATTVIA | QSYMRLPLV | En_Gibbs | 6.4 nM | 6/6 | 1/18 |
| RFPEHLLMLESKIRNIA | NATKTME | QQYFRLPLV | En_Gibbs | 9.3 nM | 6/6 | 1/18 |
| TISQMTSLFSQSINNVA | EVSTREN | QQYDRLPLS | En_Gen | 2.1 nM | 6/6 | 0/18 |
| MISQLYNFGTFAINSVA | QAETREN | QQYDRLPLT | En_Gen | 96 nM | 5/6 | 1/18 |
| KLSIMYQHTSRNKNNIA | ERSTREA | QQYHHLPLS | En_HC | 3.8 nM | 6/6 | 0/18 |
| KISQSMLFMSGKKNAIA | QMEMREE | QQYDRLPLS | En_HC | 24 nM | 6/6 | 1/18 |
| KLGQSTAMTSRMKNNVA | DLNMRER | QQYHRLPLS | En_HC | 4.0 nM | 6/6 | 0/18 |
| KLSQMTRMESRNKASVA | ENSTRES | QQYFRLPLS | En_HC | 15 nM | 1/6 | 0/18 |
| HLSDTVMQGSVYRNSVA | QESTRAD | QQYHRLPLS | En_HC | 1.3 nM | 6/6 | 0/18 |
| KLYQSEWYESRMCNNVA | NASVRES | QQYHRLPLS | GP_Gibbs | 15 nM | 6/6 | 3/18 |
| KFQQSQLYESRMKNSVA | NASKRMS | QQYHRLPLK | GP_Gibbs | 12 nM | 6/6 | 2/18 |
| KLDQSVDEKSRHKNSVA | EASTRES | QQYHRLPLS | GP_Gibbs | 2.5 nM | 6/6 | 2/18 |
| HITYGMYVSGRHTSNIA | QAETRAK | QQYDRLPLM | En_Gen | 4.8 nM | 6/6 | 1/18 |
| VLMGWGADSIQHANSVA | DRDLVDM | QQYAHLPLS | En_Gibbs | nd | 0/6 | 0/18 |
| KAEVSQDYWSRNQNSVA | NASQRES | QQYHRLPLS | GP_Gibbs | 1.6 nM | 6/6 | 0/18 |
| KISGMYQKESKNKNSVA | EMVNRES | QQYDRLPLS | En_HC | 4.3 nM | 6/6 | 0/18 |
| SISMSMAFLSRNKNSVA | ENSTRES | QQYHRLPLM | En_HC | 4.5 nM | 6/6 | 2/18 |
| KFDQSVYYLSRNKNSVA | GASTRES | QQYHGLSLS | Ctrl | 27 nM | 6/6 | 0/18 |
| MISDTGLHDSRMKNSVA | NNSTRES | QQYHRLPLS | En_HC | 25 nM | 6/6 | 3/18 |
| KLMQWQLYESRNKNNVA | NASTREM | QQYHRLPLS | GP_Gibbs | 2.1 nM | 6/6 | 0/18 |
| HMSDSIEKMASIARNIA | DETTTAM | QQYYRLPLS | En_Gibbs | 1.0 nM | 6/6 | 2/18 |
| MFSSLMEYGQRYRNSVA | QASVREN | QQYHWLPLS | En_HC | 45 nM | 6/6 | 3/18 |
| KLSQSFLYEDRNWNNVA | AASKRES | QAYHRLPLS | GP_Gibbs | 3.3 nM | 6/6 | 1/18 |
| MISQLFMYGSRNYNSIA | QASTRFK | QQYDRLPLE | En_HC | 81 nM | 3/6 | 0/18 |
| KIGMTLNQLMQKKNNVA | DLVEREN | QQYHRLPLS | En_Gen | 5.1 nM | 6/6 | 2/18 |
| TISQLMLYETRNKNNVA | GTSTREQ | QCYHRLPLS | En_HC | 3.4 nM | 6/6 | 2/18 |
| HISQSFMTESVWRNSVA | HQSTREE | QQYDRLPLS | En_HC | 3.1 nM | 6/6 | 1/18 |
| KFSQSELYGERDGNSVA | NASQRLS | QQYHRLPLS | GP_Gibbs | 4.6 nM | 6/6 | 2/18 |
| KLRQVTGYESYVRNSVA | QTSTRAE | QDYHRLPLS | En_HC | 12 nM | 6/6 | 2/18 |
| KVSDPMVEWIANQSAVA | DHADTQH | QQYARLPLS | En_Gibbs | 1.2 µM | 1/6 | 0/18 |
| MVSQLMLWGLHAKNSIA | EAVTRFN | QQYDRLPLI | En_Gen | 560 nM | 4/6 | 0/18 |
| MISQLYNMGQFAINSVA | QASLRND | QQYDRLPLT | En_Gen | 9.1 nM | 6/6 | 0/18 |
| KSSKSVLYEENNNNAVA | WASTREW | QQYHRYPIS | Ctrl | 340 nM | 4/6 | 1/18 |
| KLDLNNGEMDKKGQNIA | EASTAGM | QSYWRLPLS | En_Gibbs | 95 nM | 6/6 | 1/18 |
| HLSQSQDYESRNKNSVA | NASQRLQ | QQYHRLPLS | GP_Gibbs | 650 pM | 6/6 | 2/18 |
| MMSQVTGLGQRHRNNVA | QTSMREI | QQYDRLPLI | En_Gen | 13 nM | 6/6 | 3/18 |
| HMSALTLMGSRTRNSVA | QMTTREN | QQYDRLPLV | En_Gen | 3.2 nM | 6/6 | 0/18 |
| KIQELHYFDSEGEWNVA | DANISVL | QDYFRLPLS | En_Gibbs | nd | 0/6 | 1/18 |
| MITDDELTEGNDRNNIA | HNNVAED | QQYQQLPLV | En_Gibbs | 7.6 nM | 6/6 | 3/18 |
| HVSQLLTDEMYREYNVA | ETNHVEE | QDYFRLPLI | En_Gibbs | 48 nM | 1/6 | 0/18 |
| KIGMTLNQLLHKKNNVA | DLVERET | QQYFRLPLS | En_Gen | 2.9 nM | 6/6 | 0/18 |
| MMSQVTGMGQRHRNNVA | QTSTREE | QQYDRLPLI | En_Gen | 4.7 nM | 6/6 | 1/18 |
| KLTSLTGTEKVRGNNVA | EMETREN | QQYNRLPLS | En_Gen | 3.4 nM | 6/6 | 0/18 |
| MFSQTVMYESTMRNNVA | QTSTRES | QQYDRLPLS | En_HC | 17 nM | 1/6 | 0/18 |
| KVQQSELGLSRNKQSVA | EASTRED | QQYHRLPLS | GP_Gibbs | 1.3 nM | 6/6 | 0/18 |
| KIMQSLNYEQFNVSNVA | GQETRER | QSYHRLPLS | En_HC | 68 nM | 6/6 | 1/18 |
| HLSLPWQLGHDSTNAVA | NMSTLMT | QHYSRLPLS | En_Gibbs | 13 nM | 6/6 | 0/18 |
| KLREVIHVETKQKNNVA | DNSTRES | QDYHRLPLS | En_HC | 37 nM | 6/6 | 0/18 |
| MVTQMAMTGMMSKRSVA | NAETREH | QQYHRLPLI | En_Gen | 99 nM | 6/6 | 1/18 |
| KIGHGLTTEMYNRNSVA | QTETRVE | QHYHRLPLS | En_HC | 89 nM | 6/6 | 2/18 |
| KVMQSMWYESRWKNSVA | NASQREE | QQYHRLPLS | GP_Gibbs | 5.0 nM | 6/6 | 1/18 |
| KLASVTGTEKVIGNNVA | EMETRER | QQYNRLPLA | En_Gen | 1.6 nM | 6/6 | 0/18 |
| NLPMKELQMSWNVNNVA | DSEQKMK | QQYSRLPLM | En_Gibbs | 4.9 nM | 6/6 | 0/18 |
| SLYDAMLMESRNKNPIA | DVSTRPS | QQYHRLPLS | En_HC | 630 pM | 6/6 | 0/18 |
| KLDPSHLGESRNKNAVA | QASTREI | QQYHRLPLS | GP_Gibbs | 850 pM | 6/6 | 1/18 |
| KVDQWWDYGSRNKNSVA | NASTRER | QQYHRLPLS | GP_Gibbs | 2.6 nM | 6/6 | 0/18 |
| KSSGSVLYEDKNVNSVA | HASQRCS | QQYHRLPLS | GP_Gibbs | 9.9 nM | 6/6 | 0/18 |
| KLNDAYQGDIVNNQNIA | SADMLNH | QQYAKLPLS | En_Gibbs | 6.0 nM | 6/6 | 0/18 |
| RLWAYTQGFWRNMQNIA | DISYRVT | QQYGRLPLS | En_Gibbs | 95 nM | 6/6 | 0/18 |
| MMHNCQEGYYQQNNNVA | EMNARMM | QQYGRLPLM | En_Gibbs | 29 nM | 6/6 | 2/18 |
| KAQDGELYESRDDNSVA | NASKRLS | QQYHRLPLS | GP_Gibbs | 2.8 nM | 6/6 | 1/18 |
| NLGQKMSLEYEQRNSIA | DMTVREY | QQYSRIPLI | En_Gibbs | 4.8 nM | 6/6 | 1/18 |
| KMSQSVLMGGRNDNSVA | SASTRCS | QQYHRLPLS | GP_Gibbs | 1.0 nM | 6/6 | 0/18 |
| KLYQATAMTSTMRNNVA | DLNERER | QQYFRLPLS | En_HC | 760 pM | 6/6 | 3/18 |
| KLLQTVMNETRQRNNVA | HMTTRED | QQYHRLPLS | En_HC | 460 nM | 5/6 | 2/18 |
| KFYSAWSGEIQNNNNIA | SADTLNH | QQYWTLPLS | En_Gibbs | 15 nM | 4/6 | 0/18 |
| TIGAATLEESRNKNSVA | EMSLREN | QSYDRLPLS | En_HC | 130 nM | 6/6 | 0/18 |
| KIDGQRSYQDGRERAIA | DANIRQR | QQYNRLPLV | En_Gibbs | 960 pM | 6/6 | 1/18 |
| MISQLYNMGTFAINSVA | QASIRNE | QQYDRLPLI | En_Gen | 160 nM | 1/6 | 0/18 |
| KVSSFMRGLMMRTDSIA | DNETRND | QQYDRLPLS | En_Gen | 94 nM | 3/6 | 0/18 |
| MLDEYQMYEAANLNAIA | DANCTMP | QQYYSLPLS | En_Gibbs | 9.9 nM | 6/6 | 2/18 |
| HMSMITMLGSRNRNSVA | QMTTREN | QQYDRLPLA | En_Gen | 3.0 nM | 6/6 | 0/18 |
| TVKMELEMFAQDKHSVA | EAVERAS | QQYHRLPLG | En_Gibbs | nd | 0/6 | 0/18 |
| TISMLMNHMTRNRNNVA | NMDMREV | QQYDRLPLS | En_Gen | 1.2 nM | 6/6 | 0/18 |
| KLMQSHLYESRMANNVA | SASKREE | QQYHRLPLS | GP_Gibbs | 1.9 nM | 6/6 | 1/18 |

Picked from the list: the 8 lowest averages where every replicate gave a value.

| CDR-L1 | CDR-L2 | CDR-L3 | group | Kd (apparent) | detected | signal with controls |
|---|---|---|---|---|---|---|
| SLYDAMLMESRNKNPIA | DVSTRPS | QQYHRLPLS | En_HC | 630 pM | 6/6 | 0/18 |
| HLSQSQDYESRNKNSVA | NASQRLQ | QQYHRLPLS | GP_Gibbs | 650 pM | 6/6 | 2/18 |
| KLYQATAMTSTMRNNVA | DLNERER | QQYFRLPLS | En_HC | 760 pM | 6/6 | 3/18 |
| KLDPSHLGESRNKNAVA | QASTREI | QQYHRLPLS | GP_Gibbs | 850 pM | 6/6 | 1/18 |
| KIDGQRSYQDGRERAIA | DANIRQR | QQYNRLPLV | En_Gibbs | 960 pM | 6/6 | 1/18 |
| HMSDSIEKMASIARNIA | DETTTAM | QQYYRLPLS | En_Gibbs | 1.0 nM | 6/6 | 2/18 |
| KMSQSVLMGGRNDNSVA | SASTRCS | QQYHRLPLS | GP_Gibbs | 1.0 nM | 6/6 | 0/18 |
| TISMLMNHMTRNRNNVA | NMDMREV | QQYDRLPLS | En_Gen | 1.2 nM | 6/6 | 0/18 |

The authors averaged sequences with at least three values out of six and counted those with two or fewer as poor binders.
As a blank, each scFv also met three strains without target: over all light chain designs, 4% of these pairings were detected, typically at 430 nM and seldom below 38 nM. For each scFv, signals with the empty controls are counted beside the result.
A sequence measured in both rounds can read differently, since the two assays cover different ranges.

Reference: Li et al. 2023, doi:10.1038/s41467-023-39022-2. File: FLAb, binding data.